Reference: BindingDB's records for doi:10.1016/s0960-894x(00)00601-6 (National Cancer Istitute-Frederick Cancer Research and …, 2001)

Experiment: Inhibition of RANTES-induced migration of human embryonic kidney (CCR1/HEK) cell transfectants

CSCC[C@H](NC(=O)c1cc(C(=CCC[C@H]2CC[C@@]3(C)C(CC[C@H]4[C@@H]5CC[C@H](C(C)CCCC(C)C)[C@@]5(C)CC[C@@H]43)C2)c2cc(Cl)c(O)c(C(=O)N[C@@H](CCSC)C(=O)O)c2)cc(Cl)c1O)C(=O)O (stereo partly specified) [2-(5-{1-[3-(1-carboxy-3-methylsulfanylpropylcarbamoyl)-5-chloro-4-hydroxyphenyl]-4-[1-(1,5-dimethylhexyl)-9a,11a-dimethylperhydrocyclopenta[a]phenanthren-7-yl]-1-butenyl}-3-chloro-2-hydroxyphenylcarboxamido)-4-methylsulfanylbutanoic acid]
IC50: 12.7 µM
